Values joined by “and” are separate entries in the source; they are usually repeats but may differ in a detail not shown here. Identical values can stand only once. Like-named read-outs stand apart in the source and are kept apart here.
Test system: Apis mellifera ligustica Spin
Details: for Death number after 24 h / Death number after 48 h: per replicate of 10 bees
[1] = dosage 7.08 × 10^−3 μg a.i./bee

Substance: Ryanodine [reference compound]
- Death rate after 48 h (%) (dosage 0.102 μg a.i./bee): 65.0%
- Death number after 24 h (dosage 0.102 μg a.i./bee): 1 and 0
- Death number after 48 h (dosage 0.102 μg a.i./bee): 6 and 7
- Death rate after 48 h (%) (dosage 0.275 μg a.i./bee): 85.0%
- Death number after 24 h (dosage 0.275 μg a.i./bee): 2 and 1
- Death number after 48 h (dosage 0.275 μg a.i./bee): 7 and 10
- Death rate after 48 h (%) (dosage 0.395 μg a.i./bee): 100%
- Death number after 24 h (dosage 0.395 μg a.i./bee): 4 and 8
- Death number after 48 h (dosage 0.395 μg a.i./bee): 10
- Death rate after 48 h (%) (dosage 1.19 μg a.i./bee): 90.0%
- Death number after 24 h (dosage 1.19 μg a.i./bee): 2 and 1
- Death number after 48 h (dosage 1.19 μg a.i./bee): 8 and 10
- Death rate after 48 h (%) (dosage 1.54 μg a.i./bee): 100%
- Death number after 24 h (dosage 1.54 μg a.i./bee): 4 and 5
- Death number after 48 h (dosage 1.54 μg a.i./bee): 10
- Death rate after 48 h (%) (dosage 3.65 μg a.i./bee): 100%
- Death number after 24 h (dosage 3.65 μg a.i./bee): 1 and 5
- Death number after 48 h (dosage 3.65 μg a.i./bee): 10
- Death rate after 48 h (%) [1]: 0%
- Death number after 24 h [1]: 0
- Death number after 48 h [1]: 0
- Death rate after 48 h (%) (dosage 8.80 × 10^−3 μg a.i./bee): 30.0%

— patent publication US11716992B2, “5A5B6C tricyclic spirolactone derivative, preparation method therefor and use thereof” (NANKAI UNIVERSITY, priority 2017, dated 2023)
